Measured values: PubChem BioAssay (NCI)
Several values for one entry are separate records, joined by “and”; a condition that tells them apart may be missing. Identical values can stand only once. The entries are a selection whose mix differs from that of the whole data set.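 Cells were grown in 96-well plates and exposed to the test compound at a single concentration for 48 hours; results are reported as percent growth, with values below 10 considered active.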 Activity calls are given as the source filed them.

Legend:
Assay in all cases: NCI-60 one-dose screen, 48 h (100 = growth as untreated, 0 = no growth, -100 = all killed)
Conditions in all cases: 10 µM
NCI-H23 lung = test system: NCI-H23 lung
NCI-H226 lung = test system: NCI-H226 lung
NCI-H322M lung = test system: NCI-H322M lung
HOP-62 NSCLC = test system: HOP-62 NSCLC
NCI-H460 lung = test system: NCI-H460 lung
HOP-92 NSCLC = test system: HOP-92 NSCLC
NCI-H522 lung = test system: NCI-H522 lung
A549/ATCC NSCLC = test system: A549/ATCC NSCLC
786-0 renal = test system: 786-0 renal
COLO 205 colon = test system: COLO 205 colon

Compound	growth (NCI-H23 lung)	growth (NCI-H226 lung)	growth (NCI-H322M lung)	growth (HOP-62 NSCLC)	growth (NCI-H460 lung)	growth (HOP-92 NSCLC)	growth (NCI-H522 lung)	growth (A549/ATCC NSCLC)	growth (786-0 renal)	growth (COLO 205 colon)
Cc1cccc(C(=O)N(CCCl)CCCl)c1	inactive: 114%	inactive: 97.7%	inactive: 100%	inactive: 112%	inactive: 132%	inactive: 80.7%	inactive: 91.4%	inactive: 110%	inactive: 103%	inactive: 125%
N#CC(C#N)=Cc1ccc2c(c1)OCO2	inactive: 104% and inactive: 102%	inactive: 96.6% and inactive: 89.7%	inactive: 96.7% and inactive: 110%	inactive: 108% and inactive: 84.7%	inactive: 102% and inactive: 103%	inactive: 125%	inactive: 107% and inactive: 94%	inactive: 107% and inactive: 94.6%	inactive: 105% and inactive: 97.8%	inactive: 117% and inactive: 115%
O=c1[nH]cc(CN(CCCl)CCCl)c(=O)[nH]1	inactive: 99%	inactive: 98.3%	inactive: 96.2%	inactive: 99.9%	inactive: 106%	inactive: 102%	inactive: 97.6%	inactive: 99.7%	inactive: 102%	inactive: 106%
ClCCSC(SCCCl)=C(SCCCl)SCCCl	inactive: 54.9%	inactive: 82.7%	inactive: 92.2%	inactive: 72.3%	inactive: 31%	inactive: 85.4%	inactive: 110%	inactive: 72.1%	inactive: 77.1%	inactive: 87.9%
Oc1ccc(Br)cc1CN(CCCl)CCCl	inactive: 48.3%	inactive: 91.4%	inactive: 114%	inactive: 52.8%	inactive: 18.8%	inactive: 90.5%	inactive: 53.3%	inactive: 62.6%	inactive: 36.4%	inactive: 85.1%
COc1cc(N(CCCl)CCCl)cc(OC)c1OC	inactive: 86.4%	inactive: 84.5%	inactive: 114%	inactive: 91.6%	inactive: 77.8%	inactive: 91.9%	inactive: 92%	inactive: 80.6%	inactive: 98.6%	inactive: 84.4%
ClCCN(CCCl)Cc1ccc2c(c1)OCO2	inactive: 80.9%	inactive: 67.5%	inactive: 108%	inactive: 66.8%	inactive: 56.4%	inactive: 62.1%	inactive: 84.5%	inactive: 82.3%	inactive: 96.2%	inactive: 87%
N#CC(C#N)=Cc1ccc(N(CCCl)CCCl)cc1	inactive: 69.3%	inactive: 50%	inactive: 108%	inactive: 75.2%	inactive: 32.3%	inactive: 97.1%	inactive: 70.2%	inactive: 85.7%	inactive: 71.7%	inactive: 106%
Cc1cccc(CN(CCCl)CCCl)c1	inactive: 89.5%	inactive: 92.6%	inactive: 96.1%	–	–	inactive: 80.5%	inactive: 63.2%	inactive: 94.2%	inactive: 99.6%	inactive: 88.4%
BrCCN(CCBr)c1ccc2c(c1)Cc1ccccc1-2	inactive: 12%	inactive: 43.7%	inactive: 82.6%	inactive: 43%	active: 4.31%	–	inactive: 32.1%	inactive: 32.5%	inactive: 10%	inactive: 78.7%
OCC#CCN(CCCl)CCCl	–	inactive: 89.4%	–	inactive: 94.1%	inactive: 100%	inactive: 83.1%	inactive: 115%	inactive: 91.8%	inactive: 98.8%	inactive: 86.4%
COc1cc(CN(CCCl)CCCl)cc(OC)c1	inactive: 97.2%	inactive: 96%	inactive: 106%	inactive: 95.8%	inactive: 109%	inactive: 91.2%	inactive: 79.2%	inactive: 89.9%	inactive: 99.5%	inactive: 108%
Cc1cc(O)c(CN(CC(C)Cl)CC(C)Cl)cc1C (stereo not given)	inactive: 105%	inactive: 107%	inactive: 100%	inactive: 86.2%	inactive: 111%	–	inactive: 93.8%	inactive: 111%	inactive: 105%	inactive: 119%
O=CC(O)C(O)C(O)C(O)CN(CCCl)CCCl (stereo not given)	inactive: 101%	inactive: 101%	inactive: 102%	inactive: 106%	inactive: 104%	–	inactive: 86.2%	inactive: 99.7%	inactive: 102%	inactive: 99%
BrCCN(CCBr)CCCN(CCBr)CCBr	–	inactive: 100%	–	inactive: 98.1%	inactive: 106%	inactive: 94.3%	inactive: 74.4%	inactive: 102%	inactive: 101%	inactive: 102%
N#Cc1ccc(N(CCCl)CCCl)cc1	inactive: 96.4%	inactive: 98.4%	inactive: 102%	inactive: 91.2%	inactive: 106%	inactive: 77.5%	inactive: 94.6%	inactive: 96.5%	inactive: 104%	inactive: 103%

Compound	growth (NCI-H23 lung)	growth (NCI-H226 lung)	growth (NCI-H322M lung)	growth (HOP-62 NSCLC)	growth (NCI-H460 lung)	growth (HOP-92 NSCLC)	growth (NCI-H522 lung)	growth (A549/ATCC NSCLC)	growth (786-0 renal)	growth (COLO 205 colon)
ClCCN(CCCl)Cc1nc2cc(Cl)c(Cl)cc2[nH]1	–	inactive: 86.5%	inactive: 117%	inactive: 85.6%	inactive: 16%	–	inactive: 73%	inactive: 60.8%	inactive: 56.4%	inactive: 96%
ClCCN(CCCl)CCc1ccccc1	inactive: 97.2%	inactive: 96.8%	inactive: 93.6%	inactive: 103%	inactive: 94.6%	inactive: 107%	inactive: 79.6%	inactive: 93%	inactive: 103%	inactive: 111%
COc1ccc(C(=O)O)cc1N(CCCl)CCCl	inactive: 101%	inactive: 99.5%	inactive: 104%	inactive: 104%	inactive: 95.5%	inactive: 86.1%	inactive: 77.1%	inactive: 97.5%	inactive: 94.9%	inactive: 111%
Cn1c(=O)[nH]cc(N(CCCl)CCCl)c1=O	inactive: 81.4%	–	inactive: 128%	inactive: 103%	inactive: 34.2%	–	inactive: 91.2%	inactive: 73.4%	inactive: 94.5%	inactive: 101%
O=C1C(=O)N(CN(CCCl)CCCl)c2ccccc21	inactive: 92%	inactive: 103%	inactive: 107%	inactive: 101%	inactive: 105%	inactive: 107%	inactive: 77.1%	inactive: 111%	inactive: 104%	inactive: 112%
CCNC(=O)Cc1ccc(N(CCCl)CCCl)cc1	inactive: 88.2%	inactive: 80.6%	inactive: 98.1%	inactive: 78.6%	inactive: 44.9%	–	–	inactive: 74.1%	inactive: 83.7%	inactive: 94%
CC(C)NP(=O)(F)NC(C)C	inactive: 94%	inactive: 101%	inactive: 90.3%	–	inactive: 107%	inactive: 93.9%	inactive: 108%	inactive: 97.3%	inactive: 107%	inactive: 105%
COc1c(C)cc(N(CCCl)CCCl)c2ccccc12	inactive: 42.8%	inactive: 60.1%	inactive: 77.6%	inactive: 53.5%	inactive: 18.1%	–	inactive: 64%	inactive: 41.9%	inactive: 17.3%	inactive: 62.1%
CCCCOc1ccc(N(CCCl)CCCl)cc1	inactive: 80.7%	inactive: 100%	inactive: 103%	inactive: 73.1%	–	inactive: 99.6%	inactive: 81.2%	inactive: 93.4%	inactive: 107%	inactive: 110%
CCOC(=O)N1CCC(=O)CC1	inactive: 97.4%	inactive: 94.9%	inactive: 93.7%	inactive: 101%	inactive: 104%	–	inactive: 87.7%	inactive: 96.6%	inactive: 96.8%	–
NC(=O)C1(Nc2ccccc2)CCNCC1	inactive: 102%	inactive: 97.6%	inactive: 105%	inactive: 101%	inactive: 117%	inactive: 98.2%	inactive: 83.4%	inactive: 99.4%	inactive: 94.9%	inactive: 115%
NC(Cc1ccccc1N(CCCl)CCCl)C(=O)O (stereo not given)	inactive: 70%	inactive: 77.4%	inactive: 84%	inactive: 77.8%	inactive: 23.3%	–	inactive: 91%	–	inactive: 90.9%	inactive: 82.7%
N#CC1(Nc2ccc(Cl)cc2)CCN(Cc2ccccc2)CC1	inactive: 79.2%	inactive: 61.1%	inactive: 80.3%	inactive: 86.1%	inactive: 47.2%	inactive: 74.8%	inactive: 55.7%	inactive: 55.2%	inactive: 59.6%	inactive: 66.4%
CCOP(=O)(Cl)OCC	inactive: 103%	inactive: 103%	inactive: 92.4%	inactive: 98.6%	inactive: 109%	inactive: 84%	–	inactive: 105%	inactive: 104%	inactive: 112%
CCOC(=O)c1ccc(N(CCCl)CCCl)cc1	–	inactive: 96.9%	–	inactive: 101%	inactive: 102%	inactive: 80.5%	inactive: 85.5%	inactive: 89.9%	inactive: 97.5%	inactive: 102%
